This is an account of results in patent publication EP0528486A2 (MERCK & CO. INC., dated 1993).

This experiment has as its target farnesyl-protein transferase from bovine brain (bovine, UniProt P29702 2-375; P49355 1-437). The experiment can be described thus: affinity chromatography on …-Affigel-10.

Consider KSLTGCVIM (covalently bound to Affigel-10) [nonapeptide KSLTGCVIM], for which the binding result was “binds”.
